Test results: PMC4523496 (Molecular psychiatry, 2015)

Test system: IL-1β mRNA in VTA, NAc, vmPFC
Test: IL-1β mRNA in brain micro-punches after systemic drug
Assay type: in vivo, rat

SMILES: COC(=O)[C@H]1[C@@H](OC(=O)c2ccccc2)C[C@@H]2CC[C@H]1N2C [Cocaine]
- IL-1β mRNA levels in vmPFC and NAc (30 min and 2 h after cocaine 10 mg/kg): unaltered at both time points
- IL-1β mRNA in the VTA (2 hr after cocaine 10 mg/kg): reliably increased
